## Antibody variant affinities, Ab-14 heavy chain, assay B

Binding partner: SARS-CoV-2 spike HR2 peptide, sequence PDVDLGDISGINAS.

Parent: Ab-14, a human scFv built as VH, the linker GGGGSGGGGSGGGGS, VL. Only the CDRs of the heavy chain vary.
VH: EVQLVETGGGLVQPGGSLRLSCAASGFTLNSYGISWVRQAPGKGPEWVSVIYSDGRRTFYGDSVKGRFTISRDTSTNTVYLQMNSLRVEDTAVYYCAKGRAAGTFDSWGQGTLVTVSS
VL: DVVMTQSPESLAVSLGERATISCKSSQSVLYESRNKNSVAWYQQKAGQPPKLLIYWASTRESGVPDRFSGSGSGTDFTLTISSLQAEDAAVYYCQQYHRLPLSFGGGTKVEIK

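This is the validation round: designs drawn from the data on random variants, tested in the same kind of assay. Several design methods are mixed in this list. AlphaSeq pools MATa yeast showing the antibodies with MATalpha yeast showing the peptide. Binding brings cells together so that they mate, and sequencing counts the barcode pairs among the diploids. Read counts were normalised to the haploid input and turned into Kd by a linear fit to BCL2-family pairs of known affinity, for each replicate. Mating was done six times.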

Each variant is given by its three heavy chain CDRs, as the data file delimits them; those of the parent are GFTLNSYGIS, VIYSDGRRTFYGDSVK, GRAAGTFDS. Numbers give log10(Kd / nM), so 0 is 1 nM and 3 is 1 µM. Smaller is tighter. Averages over replicates are reported, and they cover detected replicates only. "nd" means that the variant was in the library but no mating with the target was seen in that replicate; the authors take this as a sign of poor binding, and no number exists. The list is sorted by this average, lowest first, undetected variants last.

CDR-H1,CDR-H2,CDR-H3,"replicates, log10 nM",mean log10 Kd (nM),control signals
GFDINEYGIS,VIYADGRRTFYADSVK,GQTAGTFDQ,-1.47 / -1.46 / -1.80 / -1.92 / -2.16 / -1.49,-1.72,0/18
GFDLNEYGIS,VIYADGKRTSYADSVK,GEVAGTFDV,-1.17 / -1.28 / 0.60 / -1.68 / -0.26 / -1.47,-0.88,0/18
GFDLNEYGIS,VIYADGQRTFYADSVK,GQLAGTFDL,-0.58 / -0.52 / -0.73 / -0.80 / -0.57 / -0.86,-0.68,0/18
GFDLDEYGIS,VIYADGKRTAYADDVK,GSNAGTFDV,0.22 / -1.03 / -1.07 / -0.42 / 0.37 / 0.17,-0.29,0/18
GFDLNEYGIS,VIYADGMRTFYADSVK,GQVAGTFDI,-0.58 / nd / -0.31 / -0.55 / 1.26 / -0.84,-0.20,0/18
GFDLNEYGIS,VIYADGRRTFYSDSVK,GQVAGTFDE,-0.44 / -0.01 / -0.28 / -0.02 / -0.33 / -0.06,-0.19,0/18
GFDLEEYGIS,VIYADGKRTYYADSVK,GNVAGTFDV,0.20 / -0.60 / -0.31 / -0.20 / -0.19 / -0.01,-0.19,0/18
GFNLEDYGIS,VIYADGRRTFYTDSVK,GKVAGTFDV,-0.21 / -0.16 / -0.24 / 0.15 / -0.41 / -0.14,-0.17,0/18
GFNLNEYGIS,VIYADGRRTFYSDSVK,GEAAGTFDA,0.27 / 0.17 / -0.43 / -0.38 / -0.41 / 0.01,-0.13,0/18
GFDLNEYGIS,VIYADGVRTAYSDNVK,GEVAGTFDV,-0.04 / -0.20 / -0.39 / -0.24 / -0.08 / 0.22,-0.12,0/18
GFTLNEYGIS,VIYSDGRRTFYSDSVK,GRAGGTFDT,nd / -0.55 / nd / nd / 0.34 / nd,-0.11,0/18
GFSLNSYGIS,VIYSDGKRTFYGDSVK,GRTAGTFDT,0.10 / -0.06 / -0.18 / -0.26 / -0.14 / 0.04,-0.08,1/18 (2.60)
GFSLNSYGIS,VIYSDGRRTFYKDSVK,GDAAGTFDS,nd / nd / 0.38 / 0.04 / 0.09 / -0.24,0.07,0/18
GFQLNEYGIS,VIYSDGRRTFYADQVK,GRAAGTFDS,0.34 / 0.12 / -0.07 / 0.15 / -0.51 / 0.45,0.08,0/18
GFTLNEYGIS,VIYSDGHRTFYSDSVK,GKAAGTFDS,0.61 / 0.22 / 0.40 / -0.09 / 0.24 / 0.10,0.25,1/18 (2.66)
GFTLNEYGIS,VIYSDGRRTFYGDSVK,GQAAGTFDF,-0.17 / 0.48 / nd / nd / nd / 0.55,0.29,0/18
GFDLNEYGIS,VIYADGVRTAYEEKVK,GVIINLIWL,0.42 / 1.24 / nd / 0.38 / -0.40 / -0.19,0.29,0/18
GFGLNEYGIS,VIYSDGRRTFYGDAVK,GRTAGTFDT,nd / 0.17 / nd / nd / 1.23 / -0.28,0.37,0/18
GFSLNSYGIS,VIYSDGRRTFYGDSVK,GTTAGTFDS,0.32 / 0.87 / 0.05 / 0.37 / 0.44 / 0.54,0.43,0/18
GFTLNDYGIS,VIYSDGRRTMYGDSVK,GRQAGTFDS,0.15 / 0.57 / 0.86 / 0.08 / 0.28 / 0.67,0.44,1/18 (3.75)
GFTLNSYGIS,VIYSDGKRTFYADSVK,GRTAGTFDS,0.66 / 0.53 / 0.22 / 0.43 / 0.54 / 0.44,0.47,0/18
GFTLNSYGIS,VIYSDGQRTFYSDSVK,GHAAGTFDS,0.53 / 0.48 / 0.66 / 0.39 / 0.90 / 0.07,0.50,0/18
GFQLNSYGIS,VIYSDGRRTFYSDSVK,GQTAGTFDS,0.79 / 0.51 / 0.10 / 0.49 / 0.93 / 0.30,0.52,0/18
GFSLDEYGIS,VIYADGRRTFYADSVK,GENAGTFLM,0.63 / 0.61 / 0.79 / 0.19 / 0.66 / 0.58,0.58,0/18
GFDLNEYGIS,VIYADGVRTAYSDSVK,GGNAGTFDI,-0.15 / 1.41 / -0.02 / 1.94 / -0.10 / 0.82,0.65,0/18
MFDLNSYGIS,VIYSDGRRTAYGDSVK,GRAAGTFDS,0.99 / 0.75 / 0.79 / 0.81 / 0.93 / 0.78,0.84,0/18

Further variants, results first:

"replicates, log10 nM",mean log10 Kd (nM),control signals,CDR-H1,CDR-H2,CDR-H3
0.83 / 1.60 / 1.10 / 0.36 / 0.97 / 0.56,0.90,1/18 (2.52),GFTLNEYGIS,VIYSDGIRTFYGDSVK,GRAAGTFRS
0.63 / 0.79 / 0.93 / 0.58 / 1.00 / 2.30,1.04,0/18,GFDLNSYGIS,VIYSDGRRTFYQDSVK,GVAAGTFDS
1.99 / 0.66 / 1.50 / 0.88 / 0.56 / 1.13,1.12,0/18,GFTLNSYGIS,VIYSDGQRTFYGDDVK,GKTAGTFDK
nd / 1.32 / 0.43 / 1.80 / nd / nd,1.18,0/18,GMDLDEYGIS,VIYADGQRRAYAANFK,GVNIDGFDL
1.24 / 1.14 / 1.25 / 1.49 / 1.32 / 0.98,1.24,0/18,GFDLNEYGIS,VIYADGRRTYYADSVK,GENAGTFDV
0.95 / 1.40 / 1.45 / 0.91 / 1.61 / 1.44,1.29,2/18 (2.11),GFDLNEYGIS,VIYADGKRTAYADNVK,GGVAGTFDV
1.01 / 0.53 / 1.39 / 1.53 / 1.93 / 1.37,1.29,0/18,GFTLNSYGIS,VIYSDGIRTFYGDSVK,GQTAGTFDL
nd / 1.32 / 0.67 / 2.82 / nd / 0.78,1.39,0/18,GFELNEYGIS,VIYSDGRRTFYGDSVK,GKTAGTFDA
1.96 / 1.11 / 1.22 / 1.73 / 0.87 / 1.57,1.41,0/18,GFTLNQYGIS,VIYSDGRRTFYGDSVK,DRAAGTFDS
1.46 / nd / nd / nd / nd / nd,1.46,0/18,GFTLNDYGIS,VIYSDGVRTFYGDSVK,HRAAGTFDS
nd / 1.05 / 1.16 / 2.75 / 1.62 / nd,1.65,0/18,GFDLNEYGIS,VIYADGVRTFYSDSVK,GEIAGTFDV
nd / nd / 2.70 / 1.66 / 1.85 / 2.34,2.14,1/18 (3.09),GFQLNSYGIS,VIYSDGRRTFYGDPVK,GRTAGTFDS
1.69 / 2.14 / 2.12 / nd / 2.85 / nd,2.20,1/18 (1.81),GFTLNSYGIS,VIYSDGRRTFYSDSVK,GSAGGTFDI
1.85 / nd / nd / nd / 2.58 / nd,2.21,0/18,GFDLNEYGVS,VIYADGIRTSYTDSVK,GHVVDLLMA
1.68 / nd / nd / nd / 3.29 / 1.69,2.22,0/18,GFTLESYGIS,VIYSDGRRTFYGDSVR,GRAAGTFDV
nd / nd / nd / nd / nd / nd,nd,0/18,GFTLNSYGIS,VIYSDGRRTAYGDSVK,GRAHGTFDS
nd / nd / nd / nd / nd / nd,nd,0/18,GFNLDEYGIS,VIYADGQRTAYDQKVK,GRMGTWNIV
nd / nd / nd / nd / nd / nd,nd,0/18,GFDIEDYGIS,VIYADGMRSSYSQSFK,GLQSGNISV
nd / nd / nd / nd / nd / nd,nd,0/18,GFTLEDYGIS,VIYSDGRRTFYGDSVK,GRAALTFIS
nd / nd / nd / nd / nd / nd,nd,0/18,GFWMNEYGIS,VIYSDGRRTFYADSVK,GRAAGTFHS
nd / nd / nd / nd / nd / nd,nd,1/18 (2.20),GFNLSEYGIS,VIYADGRRTAYKDTVK,GVRTWLFDL
nd / nd / nd / nd / nd / nd,nd,0/18,GFKLDEYGIS,VIYADGCRKMYADSVK,GKDTVVKLV
nd / nd / nd / nd / nd / nd,nd,0/18,GFTLNSYGIS,VIYSDGRRTFYGDSVR,GRNMGTFDS
nd / nd / nd / nd / nd / nd,nd,0/18,GFTLNSYGIS,VIYADGRRTFYGDSVK,RRAAGSTDS
nd / nd / nd / nd / nd / nd,nd,0/18,GFEIDEYGIS,VIYADGKRTSYNDTVK,GQLGNAFDL
nd / nd / nd / nd / nd / nd,nd,1/18 (1.79),GFTLNEYGIS,VIYSDGRRTFYSDSVK,GRAGGKFDS

Values of this round are not directly comparable with the first-round values of the same sequences. The authors' rule: three or more of the six replicates give a measured affinity, fewer mean a poor binder. Nonspecific signal, from three strains lacking the peptide, appeared in 1% of pairings of all heavy chain designs, centred on 2.08 (5% of these signals below 0.84); values are not corrected for it. The control count says in how many pairings with the empty strains this scFv gave a signal, with their mean in brackets. The parent sequence was in this pool as ten entries: three were never detected, three once, and four in most replicates, with averages from 0.34 to 2.37.

From the AlphaSeq antibody data of Li et al. 2023 (doi:10.1038/s41467-023-39022-2), copy in the FLAb collection.